Assay results from PubChem BioAssay AID652031 (The Scripps Research Institute Molecular Screening Center, 2013).
The list shows a part of the results, in another mix than the full data. The source made the active and inactive calls. No stated cut-off is given here; in the data, active means inhibition above about 50%; inactive means the rest.

Sequences of proteins named here, by UniProt entry; tags and fusion partners are left off.
UniProt P41145, whole entry: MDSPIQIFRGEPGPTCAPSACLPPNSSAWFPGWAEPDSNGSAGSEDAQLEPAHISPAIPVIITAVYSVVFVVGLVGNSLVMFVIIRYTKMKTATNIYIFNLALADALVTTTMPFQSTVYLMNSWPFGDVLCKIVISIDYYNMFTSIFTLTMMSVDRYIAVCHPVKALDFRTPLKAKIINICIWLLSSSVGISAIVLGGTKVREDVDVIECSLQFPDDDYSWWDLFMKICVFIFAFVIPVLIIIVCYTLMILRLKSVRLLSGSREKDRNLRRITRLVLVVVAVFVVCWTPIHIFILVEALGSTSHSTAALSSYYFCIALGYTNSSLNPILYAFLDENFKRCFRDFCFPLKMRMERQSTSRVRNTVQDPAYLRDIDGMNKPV

Target: Kappa-type opioid receptor (Homo sapiens) (UniProt P41145)
Assay: blocks the human kappa opioid receptor, Maybridge compounds (AID 652031)
Settings: OPRK1 cells, antagonist mode, fluorescence readout; at 9 µM; hits give high values

How did the inhibition turn out when `O=[N+]([O-])C1([N+](=O)[O-])COCOC1` was run?
The inhibition was inactive: -8.2%.
